The values below are quoted from earlier work in US20100190739A1, “Rapidly Dissolving Vitamin Formulation and Methods of Using the Same” (FLEMING AND COMPANY, PHARMACEUTICALS, priority 2008, published 2010).

The conditions of the data set: in vivo.

As to iron, the “Intake level at which acute toxicity can occur” value is 40 mg/kg and the “Single dose that can be fatal” value was no less than 200 mg/kg.
